Source: the NIST ThermoML archive (doi:10.1016/j.fluid.2011.11.005)

Test: excess molar enthalpy (molar enthalpy of mixing); xn = mol fraction of the nth substance listed
Details: 101 kPa, Liquid, Flow calorimetry

CCCCOCCCC [dibutyl ether] + C1CCCCC1
313.15 K
Details | excess molar enthalpy [kJ/mol]
x1 = 0.0498 | 0.0738 ± 0.0026
x1 = 0.0997 | 0.129 ± 0.0034
x1 = 0.1502 | 0.171 ± 0.0041
x1 = 0.2003 | 0.203 ± 0.0047
x1 = 0.2498 | 0.225 ± 0.0051
x1 = 0.3001 | 0.24 ± 0.0054
x1 = 0.3502 | 0.247 ± 0.0055
x1 = 0.3999 | 0.25 ± 0.0056
x1 = 0.4499 | 0.247 ± 0.0055
x1 = 0.4992 | 0.241 ± 0.0054
x1 = 0.5497 | 0.23 ± 0.0052
x1 = 0.6002 | 0.217 ± 0.0049
x1 = 0.6493 | 0.198 ± 0.0045
x1 = 0.6993 | 0.178 ± 0.0041
x1 = 0.7502 | 0.153 ± 0.0037
x1 = 0.7991 | 0.125 ± 0.0031
x1 = 0.85 | 0.0981 ± 0.0026
x1 = 0.9001 | 0.0659 ± 0.002
x1 = 0.9506 | 0.0327 ± 0.0016

CCCCOCCCC [dibutyl ether] + CC(C)CC(C)(C)C
313.15 K
Details | excess molar enthalpy [kJ/mol]
x1 = 0.0497 | 0.0262 ± 0.0013
x1 = 0.0996 | 0.0494 ± 0.0016
x1 = 0.1496 | 0.0668 ± 0.0019
x1 = 0.1998 | 0.0825 ± 0.0021
x1 = 0.2501 | 0.0954 ± 0.0024
x1 = 0.2995 | 0.106 ± 0.0026
x1 = 0.35 | 0.113 ± 0.0027
x1 = 0.3997 | 0.118 ± 0.0028
x1 = 0.4495 | 0.12 ± 0.0029
x1 = 0.4994 | 0.121 ± 0.0029
x1 = 0.5495 | 0.119 ± 0.0028
x1 = 0.5996 | 0.115 ± 0.0028
x1 = 0.6499 | 0.108 ± 0.0026
x1 = 0.6993 | 0.0991 ± 0.0025
x1 = 0.7499 | 0.088 ± 0.0022
x1 = 0.7996 | 0.0746 ± 0.002
x1 = 0.8495 | 0.0592 ± 0.0017
x1 = 0.8995 | 0.0412 ± 0.0014
x1 = 0.9497 | 0.0216 ± 0.0011

CCCCOCCCC [dibutyl ether] + Cc1ccccc1
excess molar enthalpy [kJ/mol]
Details | 298.15 K | 313.15 K
x1 = 0.0497 | 0.0239 ± 0.0012 | –
x1 = 0.0503 | – | 0.0224 ± 0.0011
x1 = 0.0995 | – | 0.0404 ± 0.0014
x1 = 0.1003 | 0.0421 ± 0.0014 | –
x1 = 0.1501 | – | 0.0559 ± 0.0016
x1 = 0.1502 | 0.056 ± 0.0016 | –
x1 = 0.1999 | 0.067 ± 0.0018 | –
x1 = 0.2006 | – | 0.0665 ± 0.0018
x1 = 0.2499 | 0.0742 ± 0.0019 | –
x1 = 0.2505 | – | 0.0745 ± 0.0019
x1 = 0.2997 | – | 0.08 ± 0.0021
x1 = 0.2999 | 0.0796 ± 0.002 | –
x1 = 0.3497 | – | 0.0831 ± 0.0021
x1 = 0.3499 | 0.082 ± 0.0021 | –
x1 = 0.3995 | 0.0825 ± 0.0021 | –
x1 = 0.4004 | – | 0.0846 ± 0.0021
x1 = 0.4495 | – | 0.0841 ± 0.0021
x1 = 0.4497 | 0.081 ± 0.0021 | –
x1 = 0.499 | – | 0.0813 ± 0.0021
x1 = 0.5002 | 0.0783 ± 0.002 | –
x1 = 0.5485 | – | 0.0778 ± 0.002
x1 = 0.5498 | 0.0747 ± 0.0019 | –
x1 = 0.5995 | 0.0693 ± 0.0018 | –
x1 = 0.6005 | – | 0.0728 ± 0.0019
x1 = 0.6501 | – | 0.0665 ± 0.0018
x1 = 0.6502 | 0.0631 ± 0.0017 | –
x1 = 0.6994 | 0.0563 ± 0.0016 | 0.0591 ± 0.0017
x1 = 0.7495 | 0.048 ± 0.0014 | –
x1 = 0.7508 | – | 0.0506 ± 0.0015
x1 = 0.799 | 0.0397 ± 0.0013 | 0.042 ± 0.0013
x1 = 0.8492 | 0.03 ± 0.0011 | 0.0317 ± 0.0012
x1 = 0.8985 | – | 0.0218 ± 0.001
x1 = 0.9 | 0.02 ± 0.001 | –
x1 = 0.9498 | 0.01 ± 0.0009 | 0.0097 ± 0.0009

Numbers after ± are expanded uncertainties.
